Assay results as given in ChEMBL document CHEMBL1136688, “Synthesis and SAR of aminoalkoxy-biaryl-4-carboxamides: novel and selective histamine H3 receptor antagonists” (Bioorg Med Chem Lett, 2003).

Protein sequences, listed by entry. Tags and fused reporters are not part of them. Lines headed by an entry give the natural chain unless they say otherwise; changes in a name come on top.
UniProt Q9QYN8: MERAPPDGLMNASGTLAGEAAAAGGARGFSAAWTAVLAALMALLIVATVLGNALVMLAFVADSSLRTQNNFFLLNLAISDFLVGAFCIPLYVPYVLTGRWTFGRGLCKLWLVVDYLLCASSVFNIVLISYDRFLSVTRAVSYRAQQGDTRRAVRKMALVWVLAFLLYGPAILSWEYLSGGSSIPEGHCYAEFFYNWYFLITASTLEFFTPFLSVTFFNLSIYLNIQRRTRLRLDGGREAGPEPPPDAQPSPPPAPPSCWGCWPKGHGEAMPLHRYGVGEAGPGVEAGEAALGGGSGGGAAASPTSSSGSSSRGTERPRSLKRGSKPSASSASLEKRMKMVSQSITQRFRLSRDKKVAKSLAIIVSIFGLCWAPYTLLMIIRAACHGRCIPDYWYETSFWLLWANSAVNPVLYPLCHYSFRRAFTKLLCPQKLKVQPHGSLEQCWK

Target: Histamine H3 receptor (Rattus norvegicus, UniProt Q9QYN8)
Experiment: Binding affinity towards rat cortical H3 receptor

Ki: 1.66 nM
SMILES: C[C@H]1CC[C@H](C)N1CCCOc1ccc(-c2ccc(C(=O)N3CCOCC3)cc2)cc1 [A-349,821]
